Measurements taken from PubChem BioAssay AID720707 (National Center for Advancing Translational Sciences (NCATS), 2013).
The list shows a part of the results, in another mix than the full data. Calls of active or inactive are those of the source. The call rests on the fitted dose curve; in most records, active means well fitted activation curve with a large enough effect; inconclusive means small, poorly fitted or top-dose-only effect; inactive means no such curve, though single readings can be large or run the other way.

Sequences of proteins named here, by UniProt entry; tags and fusion partners are left off.
UniProt O95398, whole entry: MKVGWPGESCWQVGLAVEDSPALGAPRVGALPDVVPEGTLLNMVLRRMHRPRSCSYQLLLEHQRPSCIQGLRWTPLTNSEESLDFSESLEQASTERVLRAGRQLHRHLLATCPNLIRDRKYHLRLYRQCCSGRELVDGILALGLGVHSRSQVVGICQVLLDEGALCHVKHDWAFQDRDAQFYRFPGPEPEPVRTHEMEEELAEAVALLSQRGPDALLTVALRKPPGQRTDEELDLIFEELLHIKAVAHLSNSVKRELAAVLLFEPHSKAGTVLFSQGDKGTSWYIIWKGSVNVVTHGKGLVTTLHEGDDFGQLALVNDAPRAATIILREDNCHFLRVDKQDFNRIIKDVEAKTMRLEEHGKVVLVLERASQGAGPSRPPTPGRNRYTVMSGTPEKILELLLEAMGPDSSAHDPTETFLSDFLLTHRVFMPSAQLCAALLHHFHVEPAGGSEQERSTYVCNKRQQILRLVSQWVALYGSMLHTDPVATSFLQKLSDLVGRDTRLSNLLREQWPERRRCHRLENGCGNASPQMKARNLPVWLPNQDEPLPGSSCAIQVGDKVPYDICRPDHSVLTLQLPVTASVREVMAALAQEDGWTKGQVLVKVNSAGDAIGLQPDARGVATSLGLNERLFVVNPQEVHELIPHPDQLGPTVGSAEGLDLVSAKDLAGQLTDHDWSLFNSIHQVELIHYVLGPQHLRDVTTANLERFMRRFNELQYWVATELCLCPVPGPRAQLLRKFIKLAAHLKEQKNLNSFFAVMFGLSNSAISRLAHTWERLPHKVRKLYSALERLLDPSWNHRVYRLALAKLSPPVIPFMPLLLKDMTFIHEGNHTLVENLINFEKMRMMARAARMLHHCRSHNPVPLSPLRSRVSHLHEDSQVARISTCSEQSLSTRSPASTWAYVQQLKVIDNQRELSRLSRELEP

These molecules were tested against Rap guanine nucleotide exchange factor 3 (Homo sapiens) (UniProt O95398) (assay: qHTS for Agonist of cAMP-regulated guanine nucleotide exchange factor 3 (EPAC1): primary screen). Conditions: biochemical assay, 100% = response to 6.5 mM cAMP; at 154 µM (top of the series).
From the text: In multi-cellular eukaryotic organisms, the effects of cAMP are transduced by two ubiquitously-expressed intracellular cAMP receptors, the classic protein kinase A/cAMP-dependent protein kinase (PKA/cAPK) and the more recently discovered exchange protein directly activated by cAMP/cAMP-regulated guanine nucleotide exchange factor (EPAC/cAMP-GEF). Both PKA and EPAC are ubiquitously expressed in all tissues, and an increase in intracellular cAMP levels will lead to the activation of both PKA and EPAC. Therefore, careful dissections of the individual role and relative contribution of EPAC and PKA within the overall cAMP signaling in various model systems are critical for further elucidating the mechanism of cAMP signaling. To date no EPAC-specific antagonists and agonist, as well as isoform-specific agonists have been reported, and developing EPAC-specific pharmacological probes to determine the physiological functions that EPAC play in the overall cAMP-mediated signaling remains a major challenge within the research field. Furthermore, identified regulators of EPAC may lead to new mechanism-based therapeutic strategies specifically targeting the EPAC / cAMP-signaling components as EPAC has been implicated to play important roles in major human pathological conditions such as diabetes, heart disease, and cancer.
This qHTS will be used to screen the Molecular Libraries Small Molecule Repository (MLSMR) as a concentration-titration series using the NCGC unique quantitative screening (qHTS) platform to find activators for EPAC1. In addition, this assay will also be used as a counterscreen for the EPAC2 qHTS. This fluorescent based assay is developed and validated for EPAC1 that measures exchange using EPAC effector Rap1 complex with BODIPY-GDP, a GDP analog with a tethered fluorophores. Activators are identified by monitoring the change in fluorescence signal as the exchanged free BODIPY-GDP has a reduced fluorescence compared to Rap1-bound BODIPY-GDP. Increase in signal (activation) is the desired outcome for the EPAC1 agonist while no activity in this assay is desired for the EPAC2 agonist counterscreen.
[1] de Rooij, J., Zwartkruis, F. J., Verheijen, M. H., Cool, R. H., Nijman, S. M., Wittinghofer, A., and Bos, J.L. (1998) Nature 396, 474-477
NIH Chemical Genomics Center [NCGC]
NIH Molecular Libraries Probe Centers Network [MLPCN]
Assay Submitter (PI): Xiaodong Cheng, The University of Texas Medical Branch
Briefly, three uL of reagents (100 nM EPAC1, 250 nM RAP1B-BODIPY-GDP, 50 uM GDP) were dispensed into a 1536-well Greiner black solid-bottom medium binding assay plate. Controls and test compounds (23 nL) were transferred to the plate via a Kalypsys pin tool equipped with a 1536-pin array. The plates were centrifuged at 1,000 rpm for 15 seconds followed by 5 minute incubation at room temperature. The assay plates were read at 5 minute intervals for 30 minutes in the ViewLux plate reader using 480nm excitation and 540nm emission filters. The results were normalized to the agonist positive control of 6.5 mM cAMP.
Further: nearly all actives have a fitted effect of over 60% in size.

Compound	activation
CC(C)c1ccc(OP(C)(=O)Nc2ccc(SC(F)(F)F)cc2)cc1 (centres undefined)	inactive: -32.3%
CP(=O)(Nc1ccccc1F)Oc1ccccc1 (centres undefined)	inactive: 4.27%
O=C(OCCN1CCN(CCOCc2ccccc2)CC1)C(O)(c1ccccc1)c1ccccc1	inactive: 4.7%
COc1ccc(OP(C)(=O)Nc2ccc(SC(F)(F)F)cc2)cc1 (centres undefined)	inactive: -7.21%
CCOC(=O)c1ccc(NP(C)(=O)Oc2ccc(F)cc2)cc1 (centres undefined)	inactive: -1.91%
CCCCCOc1ccc(NP(C)(=O)Oc2ccc(Cl)cc2Cl)cc1 (centres undefined)	inactive: -2.71%
CP(=O)(Nc1ccccc1)Oc1ccc(F)cc1 (centres undefined)	inactive: -3.9%
CCN(CC)CCCOC(=O)C(O)(c1ccccc1)C1CCCCC1 (centres undefined)	inactive: -2.76%
Cc1c([N+](=O)[O-])cc([N+](=O)[O-])c(Br)c1[N+](=O)[O-]	inactive: 1.01%
COc1ccc(NP(C)(=O)Oc2ccccc2OC)cc1 (centres undefined)	inactive: 3.01%
CN(C)CCOC(=O)C(O)(c1ccccc1)C1CCCCC1 (centres undefined)	inactive: -6.69%
COc1ccc(OP(C)(=O)Nc2cccc(Br)c2)cc1 (centres undefined)	inactive: 3.58%
Cc1c(C(c2ccc3c(c2)OCO3)c2c(C)n(C)n(-c3ccccc3)c2=O)c(=O)n(-c2ccccc2)n1C.O=[N+]([O-])c1cc([N+](=O)[O-])c(O)c([N+](=O)[O-])c1	inactive: -16.1%
Cc1cc(-c2cccc3ccccc23)c(C)cn1.O=[N+]([O-])c1cc([N+](=O)[O-])c(O)c([N+](=O)[O-])c1	inactive: -5.69%
O=[N+]([O-])c1ccc(OP2(=O)COCCO2)cc1 (centres undefined)	inactive: 2.46%
CCOP(C)(=S)SCC(=O)NC(C)(CC)C(=O)O (centres undefined)	inactive: -6.38%
CP(=O)(Nc1ccc(SC(F)(F)F)cc1)Oc1ccc(F)cc1 (centres undefined)	inactive: -4.59%
O=[N+]([O-])c1cc([N+](=O)[O-])c(C(F)(F)F)c([N+](=O)[O-])c1O	inactive: -10.1%
Cc1ccccc1NP(C)(=O)Nc1ccccc1C	inactive: -0.566%
CP(=O)(Nc1ccc2c(c1)OCCO2)Oc1ccccc1 (centres undefined)	inactive: -2.81%
CP(=O)(Oc1ccccc1)N1CCOC1=O (centres undefined)	inactive: 18.3%
CCc1ccc(OP(C)(=O)Nc2cccnc2)cc1 (centres undefined)	inactive: -3.4%
COc1ccccc1OP(C)(=O)Nc1c(C)n(C)n(-c2ccccc2)c1=O (centres undefined)	inactive: 0.876%

Compound	activation
O=C(OCCCN1CCCC1)C(O)(c1ccccc1)C1CCCCC1 (centres undefined)	inactive: 2%
CCN(CC)CC(O)COC(=O)C(O)(c1ccccc1)C1CCCCC1 (centres undefined)	inactive: -6.8%
COc1ccc(OP(C)(=O)Nc2ccc(Br)cc2)cc1 (centres undefined)	inactive: -19.5%
CN(C)C(=O)c1c([N+](=O)[O-])cc([N+](=O)[O-])cc1[N+](=O)[O-]	inactive: -7.71%
CP(=O)(Nc1ccc(Cl)cc1)Oc1ccc(F)cc1 (centres undefined)	inactive: -4.06%
COc1ccccc1OP(C)(=O)Nc1ccccc1Br (centres undefined)	inactive: -1.08%
CC(C)(C)c1ccc(OP(C)(=O)O)cc1	inactive: -0.84%
CP(=O)(OC12CC3CC(CC(C3)C1)C2)OC12CC3CC(CC(C3)C1)C2	inactive: 3.13%
CCOC(=O)c1ccc(NP(C)(=O)Oc2ccc(Cl)cc2)cc1 (centres undefined)	inactive: -5.49%
Nc1ccc2c(ccc3cccnc32)n1.O=[N+]([O-])c1cc([N+](=O)[O-])c(O)c([N+](=O)[O-])c1	inactive: 8.2%
COc1ccc(OP(C)(=O)Nc2ccccc2Br)cc1 (centres undefined)	inactive: -13.2%
COc1ccccc1OP(C)(=O)Nc1ccc(C)c(C)c1 (centres undefined)	inactive: 2.66%
Cc1cc(C)cc(OP(C)(=O)Nc2cccc(C(F)(F)F)c2)c1 (centres undefined)	inactive: -6.34%
CP(=O)(Nc1ccc(Cl)cc1Cl)Oc1ccccc1 (centres undefined)	inactive: -2.55%
CCCCCCCCCCCCCCCC1C[N+](C)(C)CCOP(C)(=O)O1 (centres undefined)	inactive: -5.93%
CP(=O)(OCCOc1ccccc1)OCCOc1ccccc1	inactive: 0.925%
CN(C)CCOC(=O)C(O)(c1ccccc1)C1CCCC1 (centres undefined)	inactive: 2.53%
COc1ccc(OP(C)(=O)Nc2ccccn2)cc1 (centres undefined)	inactive: 0.371%
COc1ccccc1OP(C)(=O)Nc1ccc(Br)cc1 (centres undefined)	inactive: -1.03%
CCc1ccc(OP(C)(=O)O)cc1	inactive: -1.27%
CP(=O)(Nc1ccccn1)Oc1ccccc1 (centres undefined)	inactive: -2.53%
COc1ccccc1OP(C)(=O)Nc1ccc(C)cc1C (centres undefined)	inactive: 1.35%
Cc1c(NP(C)(=O)Oc2ccc(C(C)C)cc2)c(=O)n(-c2ccccc2)n1C (centres undefined)	inactive: 1.43%

Compound	activation
O=[N+]([O-])c1cc([N+](=O)[O-])c(Nc2ccccn2)c([N+](=O)[O-])c1	inactive: -1.58%
CCN(CC)CCCOC(=O)C(O)(c1ccccc1)c1ccccc1	inactive: 8.57%
COc1ccccc1-c1ccccn1.O=[N+]([O-])c1cc([N+](=O)[O-])c(O)c([N+](=O)[O-])c1	inactive: -3.06%
CC(C)(C)c1ccc(OP(C)(=O)Nc2ccc(SC(F)(F)F)cc2)cc1 (centres undefined)	inactive: -7.25%
Cc1cccc(C)c1OP(C)(N)=O (centres undefined)	inactive: 8.75%
O=[N+]([O-])c1ccc2c(c1)C=Nc1ccccc1O2	inactive: -0.037%
O=[N+]([O-])c1cc([N+](=O)[O-])c(Nc2cccnc2)c([N+](=O)[O-])c1	inactive: -11.4%
COc1ccccc1OP(C)(=O)Nc1cc(Cl)ccc1C (centres undefined)	inactive: 3.46%
COc1ccc(OP(C)(=O)Nc2cccc(F)c2)cc1 (centres undefined)	inactive: -3.71%
Cc1cc(C)cc(OP(C)(N)=O)c1 (centres undefined)	inactive: -6.71%
CCOC(=O)c1ccc(NP(C)(=O)Oc2ccccc2)cc1 (centres undefined)	inactive: -0.348%
COc1ccccc1OP(C)(=O)Nc1ccc(C)cc1 (centres undefined)	inactive: 4.87%
Cc1ccc(NP(C)(=O)Oc2ccccc2)c(C)c1 (centres undefined)	inactive: 5.84%
COc1ccccc1OP(C)(=O)Nc1ccccc1 (centres undefined)	inactive: 14.6%
CP(=O)(Nc1ccccc1Br)Oc1ccccc1 (centres undefined)	inactive: -2.23%
CP(=S)(Nn1cnnc1)Oc1ccccc1 (centres undefined)	inactive: -0.491%
CP(=O)(NC(=O)Nc1ccccc1)Oc1ccccc1 (centres undefined)	inactive: 4.1%
CCc1ccc(OP(C)(=O)N2CCN(c3ccc([N+](=O)[O-])cc3)CC2)cc1 (centres undefined)	inactive: 5.13%
Cc1cc(C)cc(OP(C)(=O)Nc2ccc(SC(F)(F)F)cc2)c1 (centres undefined)	inactive: -0.264%
Cc1cccc(C)c1OP(C)(=O)Nc1ccc(SC(F)(F)F)cc1 (centres undefined)	inactive: 0.297%
CP(=O)(Nc1ccc(SC(F)(F)F)cc1)Oc1ccc(Cl)cc1 (centres undefined)	inactive: -2.59%
CP(=O)(Oc1ccccc1)OC(c1ccccc1)C(F)(F)F (centres undefined)	inactive: 3.95%
CP(=O)(Nc1ccccn1)Oc1ccc(Cl)cc1 (centres undefined)	inactive: 4.09%

Compound	activation
CCOP(C)(=S)SCC(=O)NC(C)C(=O)O (centres undefined)	inactive: 5.71%
CCOC(=O)c1ccc(NP(C)(=O)Oc2ccc(OC)cc2)cc1 (centres undefined)	inactive: -1.23%
O=[N+]([O-])c1cc([N+](=O)[O-])c(O)c([N+](=O)[O-])c1.c1ccc(Oc2ccncc2)cc1	inactive: 4.85%
CN(Cc1cccnc1)C(=O)COc1ccc(Cl)c(Cl)c1.O=[N+]([O-])c1cc([N+](=O)[O-])c(O)c([N+](=O)[O-])c1	inactive: -14.7%
O=[N+]([O-])c1cc([N+](=O)[O-])c(-n2nnc3ccccc32)c([N+](=O)[O-])c1	inactive: -4.66%
Cc1nc2ccc3ccccc3c2s1.O=[N+]([O-])c1cc([N+](=O)[O-])c(O)c([N+](=O)[O-])c1	inactive: 3.25%
O=[N+]([O-])c1cc([N+](=O)[O-])c(-c2cnn(-c3ccccc3)c2)c([N+](=O)[O-])c1	inactive: 8.96%
CC1=C2N=C(C=C3N=C(C(C)=C4[N-][C@@](C)([C@@H]5N=C1[C@](C)(CCC(=O)NC[C@@H](C)OP(=O)([O-])O[C@H]1[C@@H](O)[C@@H](n6cnc7cc(C)c(C)cc76)O[C@@H]1CO)[C@H]5CC(N)=O)[C@@](C)(CC(N)=O)[C@@H]4CCC(N)=O)[C@@](C)(CC(N)=O)[C@@H]3CCC(N)=O)C(C)(C)[C@@H]2CCC(N)=O.[C-]#N.[Co+3]	inactive: -10.9%
O=[N+]([O-])c1cc([N+](=O)[O-])c(Nc2nnnn2CCO)c([N+](=O)[O-])c1	inactive: -7.16%
CCCOc1ccc(NP(C)(=O)Oc2ccc(Cl)cc2)cc1 (centres undefined)	inactive: 0.227%
CP(=O)(Nc1ccc(SC(F)(F)F)cc1)Oc1ccccc1 (centres undefined)	inactive: -12.1%
COc1ccccc1OP(C)(=O)Nc1c(C)cccc1C (centres undefined)	inactive: -4.35%
CN1CCCCC1COC(=O)C1(O)c2ccccc2CCc2ccccc21 (centres undefined)	inactive: 0.711%
CC1=NCCc2c1[nH]c1ccccc21.O=[N+]([O-])c1cc([N+](=O)[O-])c(O)c([N+](=O)[O-])c1	inactive: 7.64%
Cc1cc(C)cc(OP(C)(=O)Nc2ccc(C)cc2C)c1 (centres undefined)	inactive: -2.35%
CCOC(=O)c1ccc(NP(C)(=O)Oc2cc(C)cc(C)c2)cc1 (centres undefined)	inactive: 2.55%
COc1ccccc1OP(C)(=O)Nc1cccc(Br)c1 (centres undefined)	inactive: -7.02%
Cc1cc(C)cc(OP(C)(=O)Nc2ccccn2)c1 (centres undefined)	inactive: 4.39%
CP(=O)(Nc1cccc(Br)c1)Oc1ccccc1 (centres undefined)	inactive: 8.36%
Cc1ccc(C)c(NP(C)(=O)Oc2ccccc2)c1 (centres undefined)	inactive: -1.88%
